Only a part is listed here, and it is no random draw. The source made the active and inactive calls.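 The calls were made as follows: active = inhibition of 50% or more; inactive = inhibition below 50%.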
Assay: blockers of yeast NLRP3/ASC/caspase-1 reporter – luminescence, uHTS, primary screen (AID 2825);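 also: plate controls were induced DMSO wells for no effect and uninduced yeast grown without galactose for full effect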
Conditions: Yeast reconstituted NLRP3/ASC/caspase-1, beta-gal luminescence, 24 h; at 10 µM; hits give high values

Structure (SMILES) | inhibition
CCOc1ncccc1C(=O)NCC1(N2CCOCC2)CCCCC1 | inactive: 9.26%
CN1CCC(Nc2ccc(F)c(Cl)c2)CC1 | inactive: 12.3%
CC(C)(C)OC(=O)N1CCC(Nc2ccccc2)CC1 | active: 51.6%
O=C(O)C1(Nc2ccccc2)CCN(Cc2ccccc2)CC1 | inactive: 20.4%
CCCOc1ccc(C(=O)NCC2(N(C)C)CCCCC2)cc1 | inactive: 8.23%
COc1cc(OC)cc(C(=O)NCC2(N3CCOCC3)CCCCC2)c1 | inactive: 12.3%
COc1cccc(C(=O)N(c2cc(C)cc(C)c2)C2CCN(C(=O)OC(C)(C)C)CC2)c1 | inactive: -6.28%
CCC(CO)(C(=O)OC1CN2CCC1CC2)c1ccccc1 (stereo not given) | inactive: 12.3%
CN1CCC(Nc2ccc(Cl)cc2)CC1 | inactive: 19.8%
CCCOc1ccc(C)cc1CN(CCCl)CCCl | inactive: 3.01%
COc1cc(OC)cc(C(=O)NCC2(N3CCCCC3)CCCCC2)c1 | inactive: 2.65%
Cc1ccc(C(=O)NCC2(N3CCCCC3)CCCCC2)o1 | inactive: -4.39%
Fc1ccccc1NC1CCN(Cc2ccccc2)CC1 | inactive: -4%
CCN1CCC(Nc2cccc(F)c2)CC1 | inactive: 14.8%
O=C(NCC1(N2CCCCC2)CCCCC1)c1ccco1 | inactive: 3.54%
CN(C)c1ccc(C(=O)NCC2(N3CCCCC3)CCCCC2)cc1 | inactive: 3.42%
N#Cc1ccc(C(=O)NCC2(N3CCCCC3)CCCCC2)cc1 | inactive: 2.01%
CC(C)(C)OC(=O)N1CCC(N(C(=O)c2ccccc2)c2ccc(Cl)cc2)CC1 | inactive: 17.2%
CN(C)C1(CNC(=O)c2cccc(C#N)c2)CCCCC1 | inactive: 8.37%
c1ccc(CN2CCC(Nc3ccccc3)CC2)cc1 | inactive: 15.6%
CCCN1CCC(Nc2cc(OC)cc(OC)c2)CC1 | inactive: 14.3%
COc1cc(C(=O)NCC2(N3CCOCC3)CCCCC2)cc(OC)c1C | inactive: -2.5%
O=C(NCC1(N2CCOCC2)CCCCC1)c1cc(Br)ccc1Cl | inactive: -0.17%
COc1ccc(C(=O)NCC2(N3CCOCC3)CCCCC2)cc1OC | inactive: -0.511%
CCOC(=O)N1CCC(Nc2ccc(C)cc2)CC1 | inactive: 7.15%
N/C(=N\O)c1c(N)no[n+]1[O-] | inactive: 15.8%
O=C(OC1CN2CCC1CC2)C1c2ccccc2C=Cc2ccccc21 (stereo not given) | inactive: 8.07%
CCc1cc(C(=O)NCC2(N3CCCCC3)CCCCC2)sc1C | inactive: 17.9%
CC(C)c1ccc(NC2CCN(C(=O)OC(C)(C)C)CC2)cc1 | inactive: 25%
COc1ccc(CN(CCCl)CCCl)cc1Cl | inactive: 9.96%

Source: PubChem BioAssay AID2825 (Sanford-Burnham Center for Chemical Genomics, 2010)
